Assays:
MAO A = MAO A activity in mouse striatum, liver and gut after subcutaneous clorgyline (Example 1); format: in vivo, C57BL/6 mice; conditions: 0.6 mg/kg s.c., 5 h, actual values nmol/hour/mg protein compared
Method: (§1) All experiments were performed in strict accordance with the National Institutes of Health (NIH) Guide for the Care and Use of Laboratory Animals. C57BL/6 mice were housed under constant temperature (22° C.) and humidity conditions in a room illuminated for 12 hours per day, with food and water freely available. Mice (n=5/group) were administered subcutaneously the MAO A inhibitor, clorgyline, at one of the following doses: 0; 0.25; 0.5, 0.6; 0.8; 1.0; or 2.0 mg/kg. Animals were sacrificed five hours after drug administration. Brains were removed, and dissection of the striata was performed within two minutes of cervical dislocation. Tissues were collected in buffer (pH 7.2), sonicated for approximately 10 seconds, and stored at -70° C. Similar procedures were used to collect, homogenize and store samples from the liver and gut of the animals.
(§2) MAO A and MAO B activity were measured as previously described (Yu and Hertz, J. Neurochem. 39:1492-5 (1982)), using 14C-phenylethylamine and 14C-5-hydroxytryptamine as selective substrates for MAO B and MAO A, respectively. Preliminary experiments were performed to ensure that enzyme activity was linear with respect to time and enzyme concentration, and that no more than 10-20% of the substrate was consumed during the incubation period (data not shown). Protein was measured by the method of Lowry et al. (J. Biol. Chem. 193:265-75 (1951)).

MAO B = MAO B activity in mouse striatum, liver and intestine after clorgyline (Example 1); format: in vivo, C57BL/6 mice; conditions: 1 mg/kg, 5 h after dose, liver, intestine
Method: as §1, §2

C#CCN(C)CCCOc1ccc(Cl)cc1Cl [clorgyline]
MAO A activity in the gut after clorgyline treatment relative to basal striatal MAO activity in untreated animals (MAO A): approximately three times greater | difference in MAO B activity compared to mice injected with saline (MAO B): No difference

Reference: patent US5792799A, “Parenteral delivery of MAO A inhibitors” (Athena Neurosciences, Inc., priority 1996, dated 1998)
